These are literature values, as cited in patent publication US9351926B2 (Pharmaceutical Solutions Industry Ltd., priority 2012, dated 2016).

The conditions of the data set: in vivo.

With `CC(C)Cc1ccc(C(C)C(=O)O)cc1` (racemic) [Ibuprofen, (RS)-2-(4-(2-methylpropyl)phenyl) propanoic acid], the Metabolism entry is “Hepatic (CYP2C9)”.
